The record followed here is ChEMBL document CHEMBL4041516, “SAR study of 5-alkynyl substituted quinazolin-4(3H)-ones as phosphoinositide 3-kinase delta (PI3Kδ) inhibitors” (Eur J Med Chem, 2017).

The species named for test [1] is Homo sapiens. Description: Selectivity ratio of IC50 for PI3Kbeta (unknown origin) to IC50 for PI3Kdelta (unknown origin).
Test [2] is filed under the species Homo sapiens. Description: Selectivity ratio of IC50 for PI3Kalpha (unknown origin) to IC50 for PI3Kdelta (unknown origin).
For test [3], the species on record is Homo sapiens. Description: Selectivity ratio of IC50 for PI3Kgamma (unknown origin) to IC50 for PI3Kdelta (unknown origin).

`CC[C@H](Nc1nc(N)nc(N)c1C#N)c1nc2cccc(C#CCCCC(=O)N3CCOCC3)c2c(=O)n1-c1ccccc1`: the Ratio IC50 in the test filed under Homo sapiens [1] was found to be 133; in the test listed under Homo sapiens [2], 154; in the test listed under Homo sapiens [3] it was 24.
